In the assay the test system is genotype 1b replicon (R1b). Description: HCV subgenomic replicon R1b luciferase assay. The format is cell-based, hepatitis C virus (HCV). The source says: Replicons: Three subgenomic replicons were used in this study: two replicative forms called R1a and R1b according to their genotype origin and a derivative of the R1b replicon with a mutation in the RNA-dependant RNA polymerase (Rp-del) which is thus unable to replicate and was used as a negative control in all experiments. They are bicistronic RNAs which contains the firefly luciferase (Photinus pyralis) reporter gene downstream of the HCV IRES and the sequence coding for the polyprotein NS3 to NS5B downstream of the encephalomyocarditis virus (EMCV) IRES.
RNA transfection: The replicons were transfected into Huh7 cells by electroporation.
Subconfluent monolayers of Huh7 cells were detached from the culture dish by trypsin treatment and rinsing with complete DMEM. […] 400 μL of the cell suspension was mixed by gentle pipetting with 8 μg RNA (R1a, R1b or Rp-del) and transferred into an electroporation cuvette with a gap-width of 0.4 cm (BioRad). The mixture was immediately subjected to one electric pulse at 270 V, 950 μF and maximum resistance using a Gene Pulser System (BioRad).
After electroporation the 400 μL of each cell suspension was diluted in 9 mL complete DMEM and pooled together before being seeded onto 24-well plates (1 mL per well).
Luciferase Assay: Cells were washed with PBS and scraped off the plate with 80 μL of 1× Luciferase Cell Culture Lysis Reagent (Promega). 40 μL of the lysate were transferred to a 96-well plate and mixed with 200 μL of Luciferase Assay Reagent (Promega). Luminescence expressed as relative light units (RLU) was measured immediately on a scintillation counter (Top Count NXT, Perkin Elmer) for 10 s.
The data are averages from triplicate cultures. […] The values are expressed as relative ratios of the values obtained 4 h after electroporation. Unless otherwise stated, the RLU values were determined 72 h after transfection when cells were confluent.
(A replicon is a self-replicating genome or part of one, used to study replication in cells.)

For IFN: IFNa-2b from Schering-Plough, where the note is “10 μM of GGS added, CDCA treated cells”, the “IFN concentration reaching an inhibition of 90% of the replication, with GGS, CDCA” value amounted to 0.2 U/mL. Further, under “10 μM of GGS added, mock treated cells”, the “IFN concentration reaching an inhibition of 90% of the replication, with GGS, mock” value is listed as 0.1 U/mL. Besides, the “concentration at which IFN treatment began to be effective” value (Huh7-Lunet cells, 72 h, both with CDCA 100 μM and BA-untreated) worked out at 0.1 U/mL. Besides, the “IC50 of IFN on replication, in presence of CDCA” value (Huh7-Lunet cells, CDCA 100 μM, 72 h) was 0.3 U/mL. Besides, where the note is “Huh7-Lunet cells, R1b alone, 72 h”, the “IC50 of IFN on replication, BA-untreated cells” value worked out at 0.25 U/mL. Moreover, the “IFN concentration reaching an inhibition of 90% of the replication” value (mock and CDCA treated cells, without GGS) is reported as 0.9 U/mL.

(Values after patent publication US20100172870A1, “METHODS, USES AND COMPOSITIONS FOR MODULATING REPLICATION OF HCV THROUGH THE FARNESOID X RECEPTOR (FXR) ACTIVATION OR INHIBITION” (priority 2006, published 2010).)
